The record followed here is ChEMBL document CHEMBL1140446, “Designed multiple ligands. An emerging drug discovery paradigm” (J Med Chem, 2005).

Amino acid sequences for entries named in this document (tags omitted).
UniProt P23975, whole entry: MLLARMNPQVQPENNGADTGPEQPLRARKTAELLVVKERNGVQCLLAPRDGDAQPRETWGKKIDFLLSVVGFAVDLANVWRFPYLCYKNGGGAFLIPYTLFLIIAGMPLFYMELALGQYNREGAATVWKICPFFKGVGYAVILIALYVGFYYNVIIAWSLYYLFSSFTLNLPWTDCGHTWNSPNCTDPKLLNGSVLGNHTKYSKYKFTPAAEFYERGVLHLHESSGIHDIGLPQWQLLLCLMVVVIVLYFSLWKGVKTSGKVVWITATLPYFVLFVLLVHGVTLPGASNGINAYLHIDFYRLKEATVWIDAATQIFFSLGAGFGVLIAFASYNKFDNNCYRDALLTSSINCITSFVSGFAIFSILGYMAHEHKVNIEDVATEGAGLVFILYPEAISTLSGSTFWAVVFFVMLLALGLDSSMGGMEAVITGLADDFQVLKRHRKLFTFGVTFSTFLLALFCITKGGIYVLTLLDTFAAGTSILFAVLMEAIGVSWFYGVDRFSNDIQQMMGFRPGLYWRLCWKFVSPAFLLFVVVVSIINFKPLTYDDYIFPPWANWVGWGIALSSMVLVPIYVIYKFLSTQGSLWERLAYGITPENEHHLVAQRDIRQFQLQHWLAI

For the assay, the target named is Sodium-dependent noradrenaline transporter (Homo sapiens, UniProt P23975).

Take `CN(C)C[C@@H]1C2CCC(CC2)[C@@H]1c1cccc(Cl)c1`: the IC50 turned out to be 22 nM.
